Experimental data: patent US20230068783A1 (TAVOTEK BIOTHERAPEUTICS HONG KONG, published 2023)

Chains of the proteins cited; added tags and fusions are not shown. Lines headed by an entry give the natural chain unless they say otherwise; changes in a name come on top.
UniProt P01584: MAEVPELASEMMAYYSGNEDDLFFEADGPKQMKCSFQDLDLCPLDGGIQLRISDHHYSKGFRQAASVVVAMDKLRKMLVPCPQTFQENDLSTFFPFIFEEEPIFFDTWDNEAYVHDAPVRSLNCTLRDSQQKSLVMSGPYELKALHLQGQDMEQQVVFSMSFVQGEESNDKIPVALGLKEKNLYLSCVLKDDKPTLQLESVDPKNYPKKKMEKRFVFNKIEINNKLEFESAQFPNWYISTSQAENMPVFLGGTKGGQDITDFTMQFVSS

T1: Rhesus monkey IL-1β (Rhesus monkey, UniProt P48090 117-269)
T1 sequence (looked up): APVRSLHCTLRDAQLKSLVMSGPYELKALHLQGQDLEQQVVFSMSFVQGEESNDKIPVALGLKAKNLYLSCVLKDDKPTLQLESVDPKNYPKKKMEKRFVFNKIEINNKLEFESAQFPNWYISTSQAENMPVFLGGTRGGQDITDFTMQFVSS

T2: human IL-1α (human, UniProt P01583 113-271)
T2 construct: Purified recombinant protein
T2 sequence (looked up): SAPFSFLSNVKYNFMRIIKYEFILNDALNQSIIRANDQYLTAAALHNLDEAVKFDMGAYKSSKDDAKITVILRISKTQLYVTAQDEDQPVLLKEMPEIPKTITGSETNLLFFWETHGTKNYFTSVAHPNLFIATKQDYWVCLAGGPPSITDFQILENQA


Key:
Rhesus monkey IL-1β = biological target: T1, Rhesus monkey IL-1β; experiment: cell-based or functional assay
[1] = biological target: recombinant human IL-1β (R&D systems) (human, UniProt P01584, in part); experiment: cell-based or functional assay
human IL-1α = biological target: T2, human IL-1α; experiment: ELISA with purified recombinant protein
Protocol: To evaluate the binding specificity, cytokines homologous to IL-1β such as IL-1α were evaluated for binding to humanized antibodies in ELISA-based binding assay with purified recombinant protein.

IC50 of neutralizing rhesus monkey IL-1β driven reporter gene expression, HEK-Blue IL-1β reporter assay (Rhesus monkey IL-1β) [µg/mL]	IC50 of blocking human IL-1β-mediated IL-6 release from MRC-5 cells [1] [µg/mL]	IC50 of neutralizing human IL-1β driven reporter gene expression, HEK-Blue IL-1β reporter assay [1] [µg/mL]	binding result (human IL-1α)	Binder
~0.018	~0.05	~0.09	no binding (tested: 1 ug/mL)	TAVO7378 (humanized IgG1 antibody, 304VH1 with 304VL3) (antibody, Humanized IgG1) heavy: EVQLVESGGGLVQPGGSLRLSCAASGFTFSSFGMHWVRQAPGKGLEWVAYISIGSYTVHYADSVKGRFTISRDNAKNSLYLQMNSLRDEDTAVYYCVRDDYDVTDYTMDYWGQGTTVTVSSASTKGPSVFPLAPSSKSTSGGTAALGCLVKDYFPEPVTVSWNSGALTSGVHTFPAVLQSSGLYSLSSVVTVPSSSLGTQTYICNVNHKPSNTKVDKKV[human IgG1 Fc with changes not listed] light: DIVMTQTPLSLPVTPGEPASISCKSSQSLLNSRTRKNYLAWYLQKPGQSPQLLIYWASTRESGVPDRFSGSGSGTDFTLKISRVEAEDVGVYYCKQTYNFPTFGQGTKLEIKRTVAAPSVFIFPPSDEQLKSGTASVVCLLNNFYPREAKVQWKVDNALQSGNSQESVTEQDSKDSTYSLSSTLTLSKADYEKHKVYACEVTHQGLSSPVTKSFNRGEC
~0.018	~0.05	~0.09	no binding (tested: 1 ug/mL)	TAVO7379 (humanized IgG1 antibody, 304VH1 with 304VL4) (antibody, Humanized IgG1) heavy: EVQLVESGGGLVQPGGSLRLSCAASGFTFSSFGMHWVRQAPGKGLEWVAYISIGSYTVHYADSVKGRFTISRDNAKNSLYLQMNSLRDEDTAVYYCVRDDYDVTDYTMDYWGQGTTVTVSSASTKGPSVFPLAPSSKSTSGGTAALGCLVKDYFPEPVTVSWNSGALTSGVHTFPAVLQSSGLYSLSSVVTVPSSSLGTQTYICNVNHKPSNTKVDKKV[human IgG1 Fc with changes not listed] light: DIVMTQTPLSLPVTPGEPVSMSCKSSQSLLNSRTRKNYLAWYLQKPGQSPQLLIYWASTRESGVPDRFSGSGSGTDFTLKISRVEAEDVGVYYCKQTYNFPTFGQGTKLEIKRTVAAPSVFIFPPSDEQLKSGTASVVCLLNNFYPREAKVQWKVDNALQSGNSQESVTEQDSKDSTYSLSSTLTLSKADYEKHKVYACEVTHQGLSSPVTKSFNRGEC
